Laboratory results as given in ChEMBL document CHEMBL4813951 (Eur J Med Chem, 2021).

Amino acid sequences for entries named in this document (tags omitted).
UniProt P25021, whole entry: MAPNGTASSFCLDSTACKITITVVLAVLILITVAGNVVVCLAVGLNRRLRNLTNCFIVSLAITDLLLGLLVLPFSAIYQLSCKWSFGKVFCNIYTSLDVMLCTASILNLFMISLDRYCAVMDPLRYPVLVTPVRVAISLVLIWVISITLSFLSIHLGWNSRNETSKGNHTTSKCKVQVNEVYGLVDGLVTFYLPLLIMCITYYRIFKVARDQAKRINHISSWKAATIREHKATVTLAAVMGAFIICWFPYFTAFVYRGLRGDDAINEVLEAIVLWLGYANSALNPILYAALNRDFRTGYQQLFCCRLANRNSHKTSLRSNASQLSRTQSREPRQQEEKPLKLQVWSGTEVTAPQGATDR
UniProt P47747, whole entry: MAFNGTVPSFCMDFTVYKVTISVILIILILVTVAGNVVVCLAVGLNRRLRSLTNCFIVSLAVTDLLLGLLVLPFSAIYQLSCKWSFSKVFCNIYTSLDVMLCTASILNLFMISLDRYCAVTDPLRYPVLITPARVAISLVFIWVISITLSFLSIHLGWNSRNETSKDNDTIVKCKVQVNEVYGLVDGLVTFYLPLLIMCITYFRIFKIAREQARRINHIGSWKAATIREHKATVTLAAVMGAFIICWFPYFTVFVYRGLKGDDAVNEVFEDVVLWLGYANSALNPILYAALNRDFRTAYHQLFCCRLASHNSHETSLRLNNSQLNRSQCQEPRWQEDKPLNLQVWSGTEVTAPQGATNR

Legend:
[1] = target: T1, Histamine H2 receptor (Homo sapiens, UniProt P25021); assay: Agonist activity at human histamine H2 receptor expressed in HEK293T cells co-expressing ELucC assessed as intrinsic activity at >= 30 uM by beta arrestin2 recruitment assay relative to histamine; type: functional, cell-based; conditions: filed as agonist, dose microM >=30
[2] = target: T1, Histamine H2 receptor; assay: Agonist activity at human histamine H2 receptor expressed in sf9 insect cell membranes co-exprssing GsalphaS assessed as intrinsic activity at >=30 uM incubated for 90 mins [35S]GTPgammaS binding based microbeta scintillation counting analysis relative to histamine; type: functional; conditions: Membrane, filed as agonist, dose microM >=30, time 90.0 min
[3] = target: Histamine H2 receptor (Cavia porcellus) (UniProt P47747); assay: Agonist activity at guinea pig right atrium histamine H2 receptor assessed as intrinsic activity incubated for 30 mins in presence of cimetidine relative to histamine; type: functional, tissue-based; conditions: Right cardiac atrium, filed as agonist

SMILES | Intrinsic activity [1] | Intrinsic activity [2] | Intrinsic activity [3]
Cc1ccc(CC(C)CNC(=O)/N=C(\N)NCCCc2sc(N)nc2C)cc1 (centres undefined) | 0.1 | 0.68 | –
Cc1nc(N)sc1CCCN/C(N)=N/C(=O)N[C@H](C)c1ccccc1 | – | – | 0.95
Cc1nc(N)sc1CCCN/C(N)=N/C(=O)NC(c1ccccc1)c1ccccc1 | – | – | 0.9
Cc1nc(N)sc1CCCN/C(N)=N/C(=O)NC(C)c1cccc(F)c1 (centres undefined) | – | – | 0.85
CCC(CNC(=O)/N=C(\N)NCCCc1sc(N)nc1C)c1ccccc1 (centres undefined) | 0.16 | – | –

The next lines start with the values.

Intrinsic activity [1] | Intrinsic activity [2] | Intrinsic activity [3] | SMILES
0.22 | – | – | Cc1nc(N)sc1CCCN/C(N)=N/C(=O)NCC(C)CC1CCCCC1 (centres undefined)
– | – | 1.08 | Cc1nc(N)sc1CCCN/C(N)=N/C(=O)N[C@@H](C)c1ccccc1
– | – | 0.78 | CCCCCNC(=O)/N=C(\N)NCCCc1sc(N)nc1C
